Test results reported in publication PMC7539009.

Legend:
[1] = biological target: GST-VARP residues 396-460 (Zn-fingernail 1) (UniProt Q96NW4); assay: SPR; Biacore T200; GST fusion captured on goat anti-GST antibody coupled to a CM5 chip, GST-CLA on the blank flow cell; VPS29 as analyte, typically 40 to 0.3 μM; 20 mM Tris, 200 mM NaCl, 0.1 mM TCEP, 0.5 μM ZnCl2, pH 7.4; 12 °C for the KD of 2–3 µM; equilibrium and kinetic analysis, single site
[2] = biological target: GST-VARP residues 692-746 (Zn-fingernail 2) (UniProt Q96NW4); assay: SPR; as a1 at five temperatures (8 to 25 °C); van 't Hoff plot of ln KD against 1/T for the binding enthalpy

VPS29 (short isoform, N-terminal sequence MLVL), untagged (from UniProt Q9UBQ0-1 1-182) (natural protein)
Kd [1]: 5 µM
dH [2]: -4.78 kcal/mol
